Results as given in patent US6716845B2, “Barbituric acid derivatives” (Hoffmann-La Roche Inc., priority 2001, dated 2004).
pIC50: −log10 of the molar value.

Protein sequences, listed by entry. Tags and fused reporters are not part of them. Residues count along the entry.
UniProt P22894, 100-262 limits assumed: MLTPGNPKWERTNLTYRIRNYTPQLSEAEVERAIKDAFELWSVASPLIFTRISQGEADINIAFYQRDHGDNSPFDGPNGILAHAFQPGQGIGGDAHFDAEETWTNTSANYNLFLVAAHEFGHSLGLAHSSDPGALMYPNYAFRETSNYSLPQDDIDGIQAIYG

Biological target: MMP-8, catalytic domain (Homo sapiens, UniProt P22894)
Assay: Inhibition of MMP-8 catalytic domain, fluorogenic DNP-heptapeptide substrate cleavage
Details: read-out: IC50 Values of MMP-Inhibitor (vs. MMP-8, catalytic domain); catalytic domain of human neutrophil collagenase (MMP-8); substrate DNP-Pro-Leu-Gly-Leu-Trp-Ala-D-Arg-NH2; 25° C.

`CCCCCCCCC1(N2CCN(c3ccc([N+](=O)[O-])cc3)CC2)C(=O)NC(=O)NC1=O` showed a pIC50 of 7.22.
